Measured values: PubChem BioAssay AID624466 (The Scripps Research Institute Molecular Screening Center, 2012)
The list shows a part of the results, in another mix than the full data. The source made the active and inactive calls.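 Rule for the calls: active = inhibition above a per-plate cutoff, the mean inhibition of test compounds on that plate plus 3 SD (cut at about 49% in these data); inactive = the rest.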

Chains of the proteins cited; added tags and fusions are not shown. Lines headed by an entry give the natural chain unless they say otherwise; changes in a name come on top.
UniProt Q96RJ0: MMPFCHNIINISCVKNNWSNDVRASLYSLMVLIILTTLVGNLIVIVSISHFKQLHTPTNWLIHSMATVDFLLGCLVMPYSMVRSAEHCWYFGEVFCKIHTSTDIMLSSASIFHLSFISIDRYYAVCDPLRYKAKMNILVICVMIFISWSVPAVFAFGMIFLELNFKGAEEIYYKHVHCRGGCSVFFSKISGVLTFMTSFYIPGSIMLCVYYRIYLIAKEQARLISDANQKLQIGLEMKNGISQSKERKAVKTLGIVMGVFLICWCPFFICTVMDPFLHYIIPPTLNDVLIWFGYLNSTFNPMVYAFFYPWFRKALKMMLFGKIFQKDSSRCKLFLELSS

Target: Trace amine-associated receptor 1 (Homo sapiens) (UniProt Q96RJ0)
Assay: human TAAR1 antagonists, primary screen, Fluo-8 calcium fluorescence, CHO RD-HGA16 cells (AID 624466);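 note: 0% = DMSO plus EC80 beta-PEA response and 100% = DMSO alone without agonist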
Conditions: CHO RD-HGA16 TAAR1, Fluo-8 calcium fluorescence, antagonist; at 3 µM; hits give high values

| Compound | inhibition |
| --- | --- |
| Cc1ccc(NP(=O)(Oc2cccc(C)c2)Oc2cccc(C)c2)nc1 | inactive: 2.69% |
| c1ccc(-c2nn[nH]n2)c(-c2nn[nH]n2)c1 | inactive: 3.74% |
| CC(=O)Nc1ccc(Oc2c([N+](=O)[O-])cc([N+](=O)[O-])cc2[N+](=O)[O-])cc1 | inactive: -10.6% |
| CC(=O)Nc1ccc([As](=O)(O)O)c(O)c1 | inactive: 12.3% |
| COC(=O)C1(C)COP(=O)(NCc2ccccc2)OC1 (stereo not given) | inactive: -28.7% |
| CC(=O)c1ccc(N2CC2c2ccncc2)cc1 (stereo not given) | inactive: -9.24% |
| N#C/C(=C\c1ccc(N(CCBr)CCBr)cc1)C(N)=O | inactive: -4.39% |
| C[C@H]1OP(=O)(Oc2ccccc2)C[C@@H]2O[C@@H]21 (stereo not given in full) | inactive: -18.9% |
| C[C@@H]1C=CCP(=O)(Oc2ccccc2)O1 (stereo not given in full) | inactive: -13.5% |
| Cc1ccccc1CN(C)C(=O)COC(=O)C(O)(c1ccccc1)c1ccccc1 | inactive: -16.8% |
| CCc1cc(O)c([N+](=O)[O-])c(C)c1[N+](=O)[O-] | inactive: 10.4% |
| CC(C)(C)C(=O)NC(Sc1ccccc1)C(Cl)(Cl)Cl (stereo not given) | inactive: -13.9% |
| CCOc1ccc(C2=NCC(CBr)S2)cc1 (stereo not given) | inactive: 4.57% |
| O=P1(Nc2nc3ccc(Cl)cc3s2)COc2ccccc2O1 (stereo not given) | inactive: -1.19% |
| c1nnnn1CCn1cnnn1 | inactive: -5.52% |
| CC(C)C(=O)NC(Sc1ccccc1)C(Cl)(Cl)Cl (stereo not given) | inactive: 0.7% |
| O=P(Nc1nccs1)(c1ccccc1)c1ccccc1 | inactive: -0.28% |
| C(Cc1nn[nH]n1)Cc1nn[nH]n1 | inactive: -5.54% |
| Nc1ccc([As](=O)(O)c2ccc([N+](=O)[O-])cc2)cc1 | inactive: -7.88% |
| C/C(N)=N\P(=O)(OCc1ccccc1)OCc1ccccc1 | inactive: -4.51% |
| O=C(OC1CN2CCC1CC2)c1cccc(Cl)c1 (stereo not given) | inactive: -15.7% |
| O=[N+]([O-])c1ncn(CCn2cnc([N+](=O)[O-])n2)n1 | inactive: -17.3% |
| CC(=O)NC(SC(=S)N(C)C)C(Cl)(Cl)Cl (stereo not given) | inactive: 4.86% |
| O=[As](O)(c1ccccc1)c1ccc(O)cc1 | inactive: -20.2% |
| C[C@H]1OP(=O)(Oc2ccccc2)[C@H](O)[C@H](O)[C@H]1N=[N+]=[N-] (stereo not given in full) | inactive: 17.8% |

| Compound | inhibition |
| --- | --- |
| O=P(Nc1nc2ccccc2s1)(c1ccccc1)c1ccccc1 | inactive: 3.36% |
| COc1ccc(N)c([N+](=O)[O-])c1[N+](=O)[O-] | inactive: -23.7% |
| Nc1ccc(CCCCOc2ccccc2)cc1 | inactive: -0.53% |
| O=P(Nc1ccccn1)(c1ccc(Br)cc1)c1ccc(Br)cc1 | inactive: -7.74% |
| CN(C)C1(CNC(=O)c2ccc(Cl)c(S(N)(=O)=O)c2)CCCCC1 | inactive: -5.12% |
| COC(=O)C1(C)COP(=O)(Nc2ccccc2)OC1 (stereo not given) | inactive: -12.6% |
| O=[N+]([O-])c1cccc(NC2=NCC(CBr)S2)c1 (stereo not given) | inactive: -8.88% |
| O=C(O)CNc1ccc([As](=O)(O)O)cc1 | inactive: -8.87% |
| CC(C)(C)C(=O)NC(Sc1ccncn1)C(Cl)(Cl)Cl (stereo not given) | inactive: -18.9% |
| O=[N+]([O-])c1ncn(CCn2ncnc2[N+](=O)[O-])n1 | inactive: -9.08% |
| O=C(Nc1cc([As](=O)(O)O)ccc1O)c1ccccc1 | inactive: -25.5% |
| O=P1(N(CCCl)CCCl)OCCCS1 (stereo not given) | inactive: -12.9% |
| CN(C)C(=O)OCCc1n(C)cc[n+]1C | inactive: 8.11% |
| CC(C)c1nc(Nc2ccccc2)n(P(=O)(N(C)C)N(C)C)n1 | inactive: -20.6% |
| CC(C)=N/N=C(\N)N[N+](=O)[O-] | inactive: 4.83% |
| CC1CCN(C(=O)Oc2c(Cl)cc(Cl)c3cccnc23)CC1 | inactive: 19.1% |
| c1cc(-c2nn[nH]n2)ccc1-c1nn[nH]n1 | inactive: 1.87% |
| C[N+]1=C2C=CC=CC=C2SC12C([N+](=O)[O-])=CC([N+](=O)[O-])=C[C-]2[N+](=O)[O-] (stereo not given) | inactive: 25.9% |
| Nc1ccc([As](=O)(O)c2ccc(N)cc2)cc1 | inactive: -11.6% |
| CCN(/C(=N/P(=O)(N1CCOCC1)N1CCOCC1)N1CCOCC1)c1ccc(OC)cc1 | inactive: -16.9% |
| O=[N+]([O-])c1cccc2n[nH]nc12 | inactive: -5.05% |
| CC(=O)N1C2C3N(C(C)=O)C1C1N(C(C)=O)C(C(N1C(C)=O)N3C(C)=O)N2C(C)=O | inactive: -15.2% |
| CCc1nc2c(n1)c1c(non1O)c1c2no[n+]1[O-] | inactive: 17.6% |
| O=[N+]([O-])c1cc([N+](=O)[O-])c(CCNc2ccccc2)c([N+](=O)[O-])c1 | inactive: 6.15% |
| Cc1ccc(NP(=O)(Oc2ccccc2)Oc2ccccc2)nc1 | inactive: -19.8% |

| Compound | inhibition |
| --- | --- |
| COc1ccc(C2=NCC(CBr)S2)cc1 (stereo not given) | inactive: -12.9% |
| Nc1cc(N)c2nonc2c1[N+](=O)[O-] | inactive: -9.87% |
| CC(C)CC(=O)NC(Sc1ccc(Cl)cc1)C(Cl)(Cl)Cl (stereo not given) | inactive: 5.65% |
| O=C(NC(Sc1ccncn1)C(Cl)(Cl)Cl)c1ccccc1 (stereo not given) | inactive: -18.6% |
| Oc1ccccc1CNc1ccccn1 | inactive: 1.55% |
| Cc1ccc(OP(=O)(Nc2nccs2)Oc2ccc(C)cc2)cc1 | inactive: 2.58% |
| COc1ccccc1OP(=O)(Nc1ccc(C)cn1)Oc1ccccc1OC | inactive: 43.5% |
| CN1CCCC(OC(=O)C(c2ccccc2)c2ccccc2)C1 (stereo not given) | inactive: 11.7% |
| Clc1ccc(Cl)c(NC2=NCC(CBr)S2)c1 (stereo not given) | inactive: 2.25% |
| NC(=O)c1cc([N+](=O)[O-])cc([N+](=O)[O-])c1N | inactive: 1.77% |
| Cc1ccc(N/C(=N/P(=O)(N2CCOCC2)N2CCOCC2)N2CCOCC2)cc1 | inactive: 10% |
| CN(C(=O)Cc1ccc(Cl)c(Cl)c1)[C@H]1CCCC[C@H]1N1CCCC1 | inactive: -13.1% |
| CCN(N=Nc1nonc1N)c1nonc1N | inactive: -10.3% |
| CN(C(=O)Cc1ccccc1)C1CC[C@@]2(CCCO2)C[C@@H]1N1CCCC1 (stereo not given in full) | inactive: 5.38% |
| Nc1cccc2ccc([As](=O)(O)O)cc12 | inactive: -3.68% |
| Cc1ccc(NP(=O)(Oc2ccccc2F)Oc2ccccc2F)nc1 | inactive: -12.6% |
| CN(C(=O)Cc1ccc(Cl)c(Cl)c1)[C@H]1CCCC[C@@H]1N1CCCC1 | inactive: -9.86% |
| Cc1cc(SC(NC(=O)c2ccc(F)cc2)C(Cl)(Cl)Cl)ncn1 (stereo not given) | inactive: -14.7% |
| CCOP(=O)(Nc1ccccc1)OCC | inactive: -8.84% |
| CCn1c(=O)n(C2CCN(CC3CCCCCCC3)C[C@H]2CO)c2ccccc21 (stereo not given in full) | inactive: -20.2% |
| CCCC1OP(N)(=O)OCC1CC (stereo not given) | inactive: -11.8% |
| CC(=O)Nc1ccc([As](=O)(O)O)cc1 | inactive: -4.11% |
| O=C(O)c1ccccc1[As](=O)(O)O | inactive: 7.32% |
| O=P(Nc1nc2ccc(Cl)cc2s1)(c1ccccc1)c1ccccc1 | inactive: 0.34% |
| CN(C)P(=O)(N(C)C)n1c(Nc2ccccc2)nnc1-c1ccccc1 | inactive: -17.2% |
